In patent US4522839A, “3-Substituted 2,4,6-trihalogenated benzamides as sweetening agents” (Schering Aktiengesellschaft, priority 1980, dated 1985):

Experiment: in vivo
Details: mouse, ip

Q: With `O=C1NS(=O)(=O)c2ccccc21.[Na]` [Sodium Saccharin] as the compound, how does the LD50 read?
A: ~6000 mg/kg
